Consider one substance from US20250179439A1, “PRODUCTION METHOD FOR ORGANOID” (KEIO UNIVERSITY, priority 2022, published 2025).

For the assay, the system named is CRC organoids xenografted into nude mice. Nature of the assay: CRC organoid xenograft in nude mice, tumor volume. The settings on record: cetuximab 40 mg/kg intraperitoneally every 3 days, 7 doses; nab-paclitaxel 20 mg/kg intravenously twice a week, six doses. It counts as in vivo, mouse. The method, then:
All animal experiments were carried out with the approval of the Laboratory Animal Center, Keio University School of Medicine. The verification was carried out by xenografting CRC organoids into nude mice to determine whether the results of HTS using in vitro cultured organoids were the same as those in vivo.
The CRC organoids were cultured in the same manner as in Example 1. The CRC organoids obtained by suspension culture were centrifuged, and the pellet was suspended in cold Matrigel. 0.2 mL of the CRC organoid suspension (1×10^6 cells/injection) was transplanted with subcutaneous injection into four sites on the left and right sides of nude mice.
Tumor volumes were measured over time with an electronic caliber. After the tumor volume reached 100 to 150 mm^3, cetuximab (40 mg/kg, available from Merck & Co., Inc.) was intraperitoneally injected every 3 days for 7 doses. In addition, nab-paclitaxel (20 mg/kg, available from Taiho Pharmaceutical Co., Ltd.) was intravenously injected twice a week for six doses.

With cetuximab, the “drug effect in vivo (tumor volume) compared with HTS in vitro” value is recorded as “in good agreement with the results of HTS obtained in vitro”.
